AlphaSeq binding of Ab-14 heavy chain variants to a spike HR2 peptide

Target: peptide PDVDLGDISGINAS, taken from heptad repeat 2 (HR2) of SARS-CoV-2 spike.

Parent: Ab-14, a human scFv built as VH, a 15-residue (Gly4Ser)3 linker, VL. Only the CDRs of the heavy chain vary.
VH: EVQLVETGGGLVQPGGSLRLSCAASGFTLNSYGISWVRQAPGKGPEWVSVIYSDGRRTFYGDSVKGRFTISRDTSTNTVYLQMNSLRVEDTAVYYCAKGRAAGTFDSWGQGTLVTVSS
VL: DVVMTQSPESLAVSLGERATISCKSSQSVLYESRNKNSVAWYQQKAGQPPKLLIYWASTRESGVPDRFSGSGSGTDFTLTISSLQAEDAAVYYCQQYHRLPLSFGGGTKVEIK

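Phage display of a naive human antibody library on the peptide gave the parent. Designed CDR sequences, proposed from the first random library and measured here. Group labels follow the data file (Ctrl: baseline library sampled from a position-specific scoring matrix, with some repeated check sequences; En: ensemble of fine-tuned language models; GP: Gaussian process model; GPLM: also part of the Gaussian process libraries; HC: hill climbing; Gen: genetic algorithm; Gibbs: Gibbs sampling; a sequence that several methods proposed may carry one label only). AlphaSeq pools MATa yeast showing the antibodies with MATalpha yeast showing the peptide. Pairs that bind mate more often; barcode pairs of the diploids are counted by sequencing. Each replicate has its own calibration line, from reference interactions of the BCL2 family. Each pool was mated in six replicate cultures.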

Variants are written as CDR1, CDR2 and CDR3 of the heavy chain (limits as in the source). Parent: GFTLNSYGIS, VIYSDGRRTFYGDSVK, GRAAGTFDS. Values are log10 of the apparent Kd in nM; lower means stronger binding. Where no diploid with the target was found in that replicate, the entry reads "nd": below detection, most likely a poor binder, though not proof of it. The range of this assay differs from that of the first round, and the authors advise against merging the two.

| # | log10 Kd, replicates | CDR-H1 | CDR-H2 | CDR-H3 | group |
|---|---|---|---|---|---|
| 1 | -0.76 -0.61 -1.43 -1.13 -1.09 -0.18 | GFDLDEYGIS | VIYADGMRTAYADDVK | GNVAGTFDL | En_Gen |
| 2 | nd nd nd nd 0.74 nd | KFTLNSYGIS | VIYSDGKRTFYGDSVK | GRTAGTFDS | GP_Gen |
| 3 | -0.39 -0.37 -0.33 -0.39 -0.27 -0.33 | GFDLDEYGIS | VIYADGMRTAYADSVK | GQNAGTFDQ | En_Gen |
| 4 | nd 4.51 nd nd nd nd | GFDLNEYGIS | VIYADGMRTAYADSVK | GTNAGTFVQ | En_Gen |
| 5 | -0.38 -0.64 -0.57 -0.75 -0.71 -0.54 | GFTLDEYGIS | VIYADGRRTFYADSVK | GNVAGTFDQ | En_HC |
| 6 | 0.44 -0.03 0.48 0.16 0.46 0.60 | GFDLNSYGIS | VIYSDGRRTFYGDSVK | GRTAGTFES | GP_Gen |
| 7 | nd nd nd nd nd nd | GTDLEEYGIS | VIYADGMRAAYANNVK | GVKGINVTY | En_Gibbs |
| 8 | -0.25 -0.62 -0.37 -0.59 -0.67 -0.45 | GFDLNEYGIS | VIYADGMRTFYADSVK | GEVAGTFDE | En_HC |
| 9 | nd nd nd nd nd 2.00 | YFTLNEYGIS | VIYSDGRRTFYGDSVK | GRTAGTFDT | GP_Gen |
| 10 | 0.55 0.54 0.64 0.60 0.40 0.61 | GFMLNSYGIS | VIYSDGRRTAYGDSVK | GRAAGTFDS | Ctrl |
| 11 | nd nd nd nd nd nd | GFDFQEYGIS | VIYADGKRTAYANSVK | GGSNALTTG | En_Gibbs |
| 12 | -0.14 -0.34 -0.28 -0.43 -0.24 -0.01 | GFDLNEYGIS | VIYADGRRTFYVDSVK | GSNAGTFDS | En_HC |
| 13 | nd nd nd nd nd nd | SFTLNSYGIS | VIYADGRRTFYGDSVK | GRAAGTFKM | GP_HC |
| 14 | 2.32 2.28 1.80 nd 1.14 1.71 | GYSIDEYGIS | VIYADGQRTAYQNAVK | GEQAGIMMY | En_Gibbs |
| 15 | 0.39 -0.03 -0.41 -0.50 -0.16 -0.10 | GFELNSYGIS | VIYADGRRTFYGDNVK | GKAAGTFDS | GP_Gen |
| 16 | nd nd nd nd nd nd | GFTLQSYGIS | VIYSDGRRTFYGDSVK | HRAAGTFDE | Ctrl |
| 17 | nd nd nd nd nd nd | GFTLNSYGIS | VIYSDGRRTFYGDSVK | GRNAGSFSW | Ctrl |
| 18 | -0.25 -0.35 -0.61 -0.34 -0.54 -0.34 | GFDLNEYGIS | VIYADGKRTFYIDSVK | GTNAGTFDS | En_HC |
| 19 | -0.42 -0.72 -0.51 -0.49 -0.44 -0.46 | GFDLNEYGIS | VIYADGRRTFYTDSVK | GEIAGTFNV | En_HC |
| 20 | 0.71 1.14 0.14 0.61 1.40 0.64 | GFDLNEYGIS | VIYADGMRTAYANSVK | GEVAGTFDT | En_Gen |
| 21 | nd nd nd nd 3.63 nd | GMGIDEYGIS | VIYADGMRSAYANSVK | GAHAGGIVW | En_Gibbs |
| 22 | -0.30 -0.49 -0.55 -0.48 -0.82 -0.56 | GFDINEYGIS | VIYADGRRTFYADSVK | GQTAGTFDN | En_HC |
| 23 | -0.27 -0.91 -0.46 -0.73 -0.66 -0.38 | GFDLEDYGIS | VIYADGVRTAYSDSVK | GNVAGTFDV | En_Gen |
| 24 | -0.32 -0.19 -0.26 -0.65 -0.63 -0.32 | GFDLNEYGIS | VIYADGMRTAYADDVK | GNVAGTFDL | En_Gen |
| 25 | nd 2.17 nd nd 2.93 nd | GFTLNSYGIS | VIYSTGRRTFYGDSVK | GRAAGTFDM | Ctrl |
| 26 | nd nd nd nd nd nd | GFDIDEYGIS | VIYADGQRKAYTENVK | GQHGGMTVA | En_Gibbs |
| 27 | -1.06 -1.23 -0.78 -1.21 -1.13 -1.05 | GFDLNEYGIS | VIYADGMRTAYVDSVK | GSNAGTFDI | En_Gen |
| 28 | -0.53 -0.71 -0.83 -0.68 -0.65 -0.60 | GFDINEYGIS | VIYADGRRTAYADSVK | GQTAGTFDV | En_HC |
| 29 | 1.08 0.65 0.92 1.01 0.94 0.90 | GFTLDSYGIS | VIYSDGRRTFYADRVK | GRTAGTFDS | GP_Gen |
| 30 | 0.01 -0.04 -0.10 -0.22 -0.02 0.03 | GFTLNEYGIS | VIYSDGRRTFYSDSVK | GTAAGTFDS | GPLM_Gen |
| 31 | nd nd nd nd nd nd | GFSLNSYGIS | VIYSDGRRTFYGDSVK | GRAAITTDS | Ctrl |
| 32 | -0.33 -0.31 -0.66 -0.71 -0.82 -0.30 | GFDLNEYGIS | VIYADGKRTAYADSVK | GNTAGTFDQ | En_Gen |
| 33 | nd nd nd nd nd nd | GFNLDEYGIS | VIYADGVRKAYASKVK | GKVHWFNLQ | En_Gibbs |
| 34 | nd nd nd nd nd nd | GFTLNSYGIS | VIYSDGRRTFYSDSVK | GRAAVTFDD | GP_HC |
| 35 | 0.04 -0.08 -0.33 -0.30 -0.17 -0.07 | GFDLNEYGIS | VIYADGRRTFYKDSVK | GEAAGTFDT | En_HC |
| 36 | -0.34 -0.66 -0.49 -0.53 -0.53 -0.40 | GFDLNEYGIS | VIYADGVRTAYSDSVK | GNVAGTFDQ | En_Gen |
| 37 | nd nd nd nd nd 2.39 | YFQLNEYGIS | VIYSDGRRTFYGDSVK | GRTAGTFDT | GP_Gibbs |
| 38 | 0.28 -0.35 -0.36 -0.27 -0.12 0.27 | GFELNEYGIS | VIYSDGRRTFYSDSVK | GQAAGTFDS | GP_Gen |
| 39 | 0.53 0.25 1.01 0.91 0.08 0.83 | GFTLNSYGIS | VIYSDGRRTFYDDSVK | GVLAGTFDS | GPLM_HC |
| 40 | -0.70 -0.61 -0.70 -0.88 -0.88 -0.60 | GFDLNEYGIS | VIYADGRRTAYLDSVK | GENAGTFDS | En_HC |
| 41 | nd -0.31 -0.22 0.08 1.14 1.30 | GFSLNSYGIS | VIYSDGRRTAYGDSVK | GRQAGTFDS | GPLM_Gen |

Excerpt, the final 3 entries:

CDR-H1	CDR-H2	CDR-H3	group	log10 Kd, replicates
GFTLNSYGIS	VIYSDGRRTFYDDSVK	GVLAGTFDS	GPLM_HC	0.53 0.25 1.01 0.91 0.08 0.83
GFDLNEYGIS	VIYADGRRTAYLDSVK	GENAGTFDS	En_HC	-0.70 -0.61 -0.70 -0.88 -0.88 -0.60
GFSLNSYGIS	VIYSDGRRTAYGDSVK	GRQAGTFDS	GPLM_Gen	nd -0.31 -0.22 0.08 1.14 1.30

Three control strains display no target. For all heavy chain designs, 1% of the pairings with them gave a signal, with a median of 2.08 and one signal in twenty below 0.84, so weak values seen in few replicates may be background. Of ten entries with the parent sequence, four were seen in most replicates (averages 0.34 to 2.37), three in one and three in none, so single entries are noisy. In the paper, a design with two or fewer of six values counts as a poor binder.

Reference: Li et al. 2023, doi:10.1038/s41467-023-39022-2. File: FLAb, binding data.